Target: Dual specificity tyrosine-phosphorylation-regulated kinase 1A (Homo sapiens, UniProt Q13627)
Experiment: Inhibition of DYRK1A (unknown origin)

IC50: 40 nM
Compound: CCN1/C(=C/C(C)=O)Sc2ccc(OC)cc21
